Data published in article PMC3605307 (2013).

Sequences of proteins named here, by UniProt entry; tags and fusion partners are left off. Residues count along the entry.
UniProt O14763, 58-184: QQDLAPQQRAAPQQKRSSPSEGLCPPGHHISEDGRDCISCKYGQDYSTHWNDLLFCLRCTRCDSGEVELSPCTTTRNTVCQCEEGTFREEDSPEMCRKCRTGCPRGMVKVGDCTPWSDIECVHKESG

Target: Human TRAIL-R2-Fc fusion protein (wild type) (human, UniProt O14763 58-184)
Assay: SPR

B1: TRAIL (TNF-related apoptosis inducing ligand) ectodomain (ligand)
chain: TNELKQMQDKYSKSGIACFLKEDDSYWDPNDEESMNSPCWQVKWQLRQLVRKMILRTSEETISTVQEKQQNISPLVRERGPQRVAAHITGTRGRSNTLSSPNSKNEKALGRKINSWESSRSGHSFLSNLHLRNGELVIHEKGFYYIYSQTYFRFQEEIKENTKNDKQMVQYIYKYTSYPDPILLMKSARNSCWSKDAEYGLYSIYQGGIFELKENDRIFVSVTNEHLIDMDHEASFFGAFLVG
How did the Kd turn out when B1 was run?
Its Kd is 4 nM.
